# Antibody variant affinities, Ab-14 light chain, assay B

Data: MIT Lincoln Laboratory AlphaSeq set, Li et al. 2023, doi:10.1038/s41467-023-39022-2, as distributed in FLAb.

Binding partner: SARS-CoV-2 spike HR2 peptide, sequence PDVDLGDISGINAS.

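The parent was found by panning a naive human phage display library on the peptide. Designed CDR sequences, proposed from the first random library and measured here. Several design methods are mixed in this list. Affinity was read by AlphaSeq, a pooled yeast mating assay with surface-displayed partners. Mating (16 h, 30 °C) was followed by selection of diploids and sequencing of their barcodes. Scores were corrected for input abundance and mapped to Kd with protein pairs of known affinity run in the same pool. There are six technical replicates.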

Parent: Ab-14, a human scFv built as VH, the linker GGGGSGGGGSGGGGS, VL. Only the CDRs of the light chain vary.
VH: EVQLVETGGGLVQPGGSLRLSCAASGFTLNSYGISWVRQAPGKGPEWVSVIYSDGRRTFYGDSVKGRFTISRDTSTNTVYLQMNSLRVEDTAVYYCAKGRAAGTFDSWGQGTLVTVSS
VL: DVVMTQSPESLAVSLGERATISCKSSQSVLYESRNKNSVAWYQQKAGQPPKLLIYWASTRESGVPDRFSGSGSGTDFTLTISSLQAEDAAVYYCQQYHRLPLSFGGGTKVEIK

Variants are written as CDR1, CDR2 and CDR3 of the light chain (limits as in the source). Parent: KSSQSVLYESRNKNSVA, WASTRES, QQYHRLPLS.
This list holds designs with at most six substitutions.
The Kd shown is the geometric mean over detected replicates; a lower Kd is a better binder.
"nd" means that the variant was in the library but no mating with the target was seen in any replicate; the authors take this as a sign of poor binding, and no number exists.
The list is sorted by this average, lowest first, undetected variants last.

- KLSWSVLYESRNKNNVA | DASTRES | QQYHRLPLS = 220 pM (6 of 6 replicates; controls 0 of 18)
- KSSQSELYESRNKNSVA | EASTRCS | QQYHRLPLS = 430 pM (6 of 6 replicates; controls 0 of 18)
- KLPQSVLYESRNKNNVA | AASTRES | QQYHRLPLS = 480 pM (6 of 6 replicates; controls 0 of 18)
- KLSQSTLYESRNKNSVA | NASQRES | QQYHRLPLS = 560 pM (6 of 6 replicates; controls 2 of 18)
- KSSQSVPYESRNKNSVA | DASTRES | QQYHRLPAS = 740 pM (6 of 6 replicates; controls 1 of 18)
- KFMQSVLYESRNKNSVA | GASTRES | QQYHRLPLS = 770 pM (6 of 6 replicates; controls 1 of 18)
- KLSQQAEYESRVKNSVA | QASTRES | QQYHRLPLS = 810 pM (6 of 6 replicates; controls 0 of 18)
- KLSQSHLYESRNKNSVA | NASYRLS | QQYHRLPLS = 940 pM (6 of 6 replicates; controls 2 of 18)
- KSSLSYLYESRNKNSVA | AASTRES | QQYHRLPLS = 1.2 nM (6 of 6 replicates; controls 3 of 18)
- KLSQSWLYESRNKNSVA | NASQRCS | QQYHRLPLS = 1.3 nM (6 of 6 replicates; controls 3 of 18)
- KSSQLVLYESRNKNSVA | HASTRES | QQYHRLPLS = 1.3 nM (6 of 6 replicates; controls 2 of 18)
- KISQSVLYESRNKNSVA | WGSTRES | QQYHRLPLS = 1.3 nM (6 of 6 replicates; controls 0 of 18)
- KLSQSFLYESRNKNSVA | NASKRES | QQYHRLPLS = 2.4 nM (6 of 6 replicates; controls 0 of 18)
- KSDQSVLYESRNKNSVA | HASTRED | QQYGRLPLS = 2.8 nM (6 of 6 replicates; controls 0 of 18)
- KFSDSDLLESRTKNSVA | NASTRES | QQYHRLPLS = 3.0 nM (6 of 6 replicates; controls 1 of 18)
- HSSPSMLYESRNKNSVA | NASTRES | QQYHRLPLS = 3.0 nM (6 of 6 replicates; controls 2 of 18)
- KISQSVLYESRNKNAVA | WASTRES | QQYHRLPLS = 4.6 nM (6 of 6 replicates; controls 1 of 18)
- KSSQSVLYESNNKNSVA | AASTRYS | QQYHRLPLS = 5.8 nM (6 of 6 replicates; controls 2 of 18)
- KSSQSVLYESRNKNSVA | AASTRES | QQYARLPLS = 6.5 nM (6 of 6 replicates; controls 1 of 18)
- KSSQSVMYESLNKNSVA | WASTRES | QQYHRLPLS = 12 nM (6 of 6 replicates; controls 2 of 18)
- KCSQSVGYESRNKNFVA | HASTRES | QQYHRLPLS = 15 nM (6 of 6 replicates; controls 0 of 18)
- KSSQSVLNESRNKNSVA | QASTRES | QQYHRLPLS = 31 nM (6 of 6 replicates; controls 0 of 18)
- KSSISYLYESRNKNSVA | AASTHES | QQYHRLPLS = 34 nM (6 of 6 replicates; controls 0 of 18)
- KWSQSVLYESRNKNSVA | WASTRES | QQYMRLPLA = 35 nM (6 of 6 replicates; controls 0 of 18)
- KSSQSVLYECRNKNSVA | WASTRYS | QQYHRLPLS = 52 nM (1 of 6 replicates; controls 0 of 18)
- KSSQSKLYESRNKNSVA | WISTRES | QQVHRLPIY = 160 nM (1 of 6 replicates; controls 0 of 18)
- KLSNSVLYESRNKNSVA | NASTRES | QQYHRLPLS = nd (0 of 6 replicates; controls 0 of 18)
- QSSQSVLYESRNKNSVA | WASERES | QQVHRLPLS = nd (0 of 6 replicates; controls 1 of 18)
- KSSMSVLYESRNKNSVA | WASTRES | PQYHRLPLS = nd (0 of 6 replicates; controls 1 of 18)
- KSRQSVLMESRNKNSVA | WASLRES | QQYHHEPLS = nd (0 of 6 replicates; controls 0 of 18)

A selection of 4 entries from above:

* HSSPSMLYESRNKNSVA | NASTRES | QQYHRLPLS = 3.0 nM (6 of 6 replicates; controls 2 of 18)
* KLSQSHLYESRNKNSVA | NASYRLS | QQYHRLPLS = 940 pM (6 of 6 replicates; controls 2 of 18)
* KLSQSWLYESRNKNSVA | NASQRCS | QQYHRLPLS = 1.3 nM (6 of 6 replicates; controls 3 of 18)
* KFSDSDLLESRTKNSVA | NASTRES | QQYHRLPLS = 3.0 nM (6 of 6 replicates; controls 1 of 18)

Values of this round are not directly comparable with the first-round values of the same sequences.
As a blank, each scFv also met three strains without target: over all light chain designs, 4% of these pairings were detected, typically at 430 nM and seldom below 38 nM. For each scFv, signals with the empty controls are counted beside the result.
In the paper, a design with two or fewer of six values counts as a poor binder.